The values that follow are results of earlier work, collected in paper PMC11416411, “TDP-43 regulates LC3ylation in neural tissue through ATG4B cryptic splicing inhibition” (Acta Neuropathologica, 2024).

In this data set the test system is ALS. The conditions noted are these: ALS patients; no reference given; cited from earlier work.

Turning to `Nc1nc2ccc(OC(F)(F)F)cc2s1` [Riluzole], the prolongation of survival result is “two to six”.
